Assay results reported in patent US8906884B2, “Method of treating graft-rejection using dextran sulfate” (TX Medic AB, priority 2002, dated 2014).

Key:
[1] = test system: IBMIR triggered by API in fresh human blood; details: in words
[2] = test system: adult porcine islets (API)
[3] = API cultured 3 days with 0.01 mg/ml
[4] = API cultured 3 days with 0.1 mg/ml
[5] = API cultured 3 days with 1 mg/ml

Substance: Low molecular weight dextran sulfate [LMW-DS]
- Direct activation of factor XII [1]: not directly activated
- ADP/ATP ratio [2, 3]: 0.08 ± 0.03
- Insulin/DNA ratio [2, 3]: 66.1 ± 5.8 pmol/µg
- Stimulation Index in SGS test [2, 3]: 2.26 ± 0.51
- Survival rate (% IEQ) [2, 3]: 43.6 ± 6.7 % IEQ
- ADP/ATP ratio [2, 4]: 0.10 ± 0.03
- Insulin/DNA ratio [2, 4]: 69.1 ± 9.6 pmol/µg
- Stimulation Index in SGS test [2, 4]: 3.22 ± 0.89
- Survival rate (% IEQ) [2, 4]: 58.4 ± 4.3 % IEQ
- ADP/ATP ratio [2, 5]: 0.11 ± 0.01
- Insulin/DNA ratio [2, 5]: 71.6 ± 7.4 pmol/µg
- Stimulation Index in SGS test [2, 5]: 1.42 ± 0.35
- Survival rate (% IEQ) [2, 5]: 68.9 ± 2.6 % IEQ
- Morphology of treated API versus API cultured without LMW-DS ([2]; in words): no difference

Read-outs that look alike come from different tables or passages of the source.
